This is a selection; strong and weak results do not stand in their true shares. Results filed as inconclusive are left out. Active and inactive are the calls of the source. Calls come from the whole dose curve; as a rule, active = well fitted cell-killing curve with a large enough effect; inconclusive = small, poorly fitted or top-dose-only effect; inactive = no such curve, though single readings can be large or run the other way.
assay: qHTS Screen for Compounds that Selectively Target Cancer Cells with p53 Mutations: Cytotoxicity of p53 Null Cells at the Nonpermissive Temperature; conditions: H1299 p53-null (neo) cells, 39C, ATPlite viability, 24 h; at 46.1 µM (top of the series);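 note: 0% = DMSO only and -100% = full killing by 100 µM tamoxifen; nearly all actives have a fitted effect of over 50% in size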
Description: NIH Chemical Genomics Center [NCGC] NIH Molecular Libraries Screening Centers Network [MLSCN] MLSCN Grant: 1 X01 MH079844-01 Assay Submitter (PI): Dr. SUN, YI, University of Michigan NCGC Assay Overview: Synthetic Lethal Screen for Compounds to Kill Cancer Cells with p53 Mutation. Tumor suppressor gene p53 serves as a major cellular barrier against tumorigenesis. […] The goal of this screening is to identify small molecule probes that selectively kill cancer cells with mutations in p53. This screening was carried out using two lines of H1299 lung cancer cells. The H1299-p53 A138V line express a temperature sensitive p53 mutant (p53ts) in which the mutant p53 protein (A138V) is in the mutant confirmation when grown at 39C (the nonpermissive temperature) and in the wild type conformation when grown at 32C (the permissive temperature). A H1299-neo line (p53 null) grown at both 39C and 32C were used as counter-screens to filter out false positive associated with temperature shifting. The small molecular compounds that selectively target mutant p53-containing cancer cells were selected as candidate probes for further study. A cytotoxicity assay based on the measurement of ATP contents in cells was used in this screen. Concentration-responses of all the compounds in the library collection were determined in qHTS using the cell lines and temperature conditions as above.
NCGC Assay Protocol Summary: Both the H1299-p53A138V and H1299-neo cell lines were provided by Dr.Yi Sun, a PI at the University Michigan. The cells were maintained and cultured at 37C. The resuspended frozen cells were used to plate the cells in the 1536-well assay plates at a density of 600 cells per well in 5 ul medium. The assay plates with the cells were incubated at 37C for 16 to 30 hours before the experiments. The library compounds in DMSO solution were added to the cells in assay plates and incubated 24 hours at 39C (for mutant p53 conformation) or 32C (for normal p53 conformation as control). An ATP_lite assay kit (PerkinElmer) was used to determine the cell viability. Tomaxifen (100uM) was used as the positive control for cell killing. Data were normalized to the controls for basal activity (DMSO only) and 100% killing (100uM tamoxifen). AC50 values were determined from concentration-response data modeled with the standard Hill equation. P53 assay protocol: 1. Reagent; 5 uL H1299-p53A138V or H1299-neo cell cells/well 2. Time; overnight; 37C incubation 3. Compounds; 23 nL; 5.9 nM to 46 uM 4. Controls; 23 nL; Tamoxifen 100 uM 5. Time; 24 hr; 39C incubation 6. Reagent; 3 uL; ATP_Lite reagent 7. Time; 20 min; Room Temperature 8. Detection; Luminescence; Viewlux plate reader Keywords: p53, synthetic lethal, cancer, cell viability, cytotoxicity, H1299 cell line, luminescence, MLSMR, MLSCN, NIH Roadmap, qHTS, NCGC

Structure (SMILES)	activity, negative = cell killing
CCCOc1cccc(C(=O)NCC2(N3CCOCC3)CCCCC2)c1	inactive: -4.35%
CCOc1ccc(C(=O)NCC2(N3CCOCC3)CCCCC2)cc1	inactive: -13.9%
O=C(NCC1(N2CCOCC2)CCCCC1)c1ccccc1Br	inactive: -5.33%
CCCCOc1ccccc1C(=O)NCC1(N2CCOCC2)CCCCC1	inactive: -8.31%
O=C(NCC1(N2CCOCC2)CCCCC1)c1ccc(Cl)cc1	inactive: 8.33%
COc1ccccc1C(=O)NCC1(N2CCOCC2)CCCCC1	inactive: 21.8%
Cc1ccccc1C(=O)NCC1(N(C)C)CCCCC1	inactive: -24.8%
CC(C)(C)c1ccc(C(=O)NCC2(N3CCOCC3)CCCCC2)cc1	inactive: 15.3%
CN(C)C1(CNC(=O)c2ccc(C(C)(C)C)cc2)CCCCC1	inactive: -27.1%
COc1cc(C(=O)NCC2(N3CCOCC3)CCCCC2)cc(OC)c1OC	inactive: -17.9%
O=C(NCC1(N2CCOCC2)CCCCC1)c1ccccc1	inactive: 15.4%
O=C(NCC1(N2CCOCC2)CCCCC1)c1ccccc1[N+](=O)[O-]	inactive: -14.3%
O=C(NCC1(N2CCOCC2)CCCCC1)c1ccc([N+](=O)[O-])cc1	inactive: 9.7%

From PubChem BioAssay AID904 (National Center for Advancing Translational Sciences (NCATS), 2007)
